{"source": "patent US20120244567A1", "about": "“HUMAN EMBRYONIC STEM CELLS FOR HIGH THROUGHOUT DRUG SCREENING” (BUCK INSTITUTE FOR RESEARCH ON AGING, priority 2009, published 2012)", "test_system": "NSCs", "experiment": "Effect of solTNFα on NSC survival", "format": "cell-based, human", "details": "for cell death between treated and untreated cells: 0.1 mM, 1 mM and 10 mM, 48 hours", "description": "For measuring the effect of TNFc on NSCs, 16 NSCs were passaged onto fibronectin-coated 4-well plates in Neurobasal media supplemented with 1×B27, 2 mM L-glutamine and 10 ng/ml of both bFGF and LIF growth factors. Cells were recovered for 12 hours at 37° and then either left untreated or treated with solTNFα at the concentrations indicated.\nWe therefore examined whether cell death in NSCs upon amiodarone HCl exposure could be due to the activation of soluble TNFα signaling pathways. Three dosages of soluble TNFα (0.1 mM, 1 mM and 10 mM) were tested in NSC culture for 48 hours."}
{"substance": "solTNFα: soluble biologically active form of TNFα, a potent pro-inflammatory cytokine", "values": [{"measurement": "cell death relative to untreated cultures", "setting": "0.1 nM, 1 nM and 10 nM, up to 24 hours", "value": "No increase in cell death"}, {"measurement": "cell death between treated and untreated cells", "value": "no increase in cell death"}, {"measurement": "cell death between treated and untreated cells", "setting": "listed as soluble TNFα", "value": "did not observe differences in cell death"}]}
